Paper doi:10.1101/2025.02.25.640118 (bioRxiv, 2025)

Biological target: T1, HUαα-MsyB complex (E. coli, UniProt P0ACF0 1-90; P25738 1-124)
T1 sequence (looked up) 1: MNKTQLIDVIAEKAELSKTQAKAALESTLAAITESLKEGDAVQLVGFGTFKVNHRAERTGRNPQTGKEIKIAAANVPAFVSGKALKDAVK
T1 sequence (looked up) 2: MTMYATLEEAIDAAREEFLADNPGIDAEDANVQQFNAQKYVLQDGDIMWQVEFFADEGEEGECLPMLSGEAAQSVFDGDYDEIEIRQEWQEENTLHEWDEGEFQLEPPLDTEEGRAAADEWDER
Assay: SEC

stoichiometry N: 1
B1: β-clamp (β subunit of DNA polymerase) (natural protein, E. coli, UniProt P0A988 1-366, looked up)
chain: MKFTVEREHLLKPLQQVSGPLGGRPTLPILGNLLLQVADGTLSLTGTDLEMEMVARVALVQPHEPGATTVPARKFFDICRGLPEGAEIAVQLEGERMLVRSGRSRFSLSTLPAADFPNLDDWQSEVEFTLPQATMKRLIEATQFSMAHQDVRYYLNGMLFETEGEELRTVATDGHRLAVCSMPIGQSLPSHSVIVPRKGVIELMRMLDGGDNPLRVQIGSNNIRAHVGDFIFTSKLVDGRFPDYRRVLPKNPDKHLEAGCDLLKQAFARAAILSNEKFRGVRLYVSENQLKITANNPEQEEAEEILDVTYSGAEMEIGFNVSYVLDVLNALKCENVRMMLTDSVSSVQIEDAASQSAAYVVMPMRL
